Patent US5677146

Experiments:
[1] = target: human Factor Xa (3 nM) (human) (UniProt P00742)
[2] = target: Cathepsin G, purified at Novo Nordisk A/S using the method of Baugh and Travis
[3] = target: Urokinase (5 nM), Serono, Freigung, Germany
[4] = target: Leukocyte Elastase, purified at Novo Nordisk A/S using the method of Baugh and Travis
[5] = target: Chymotrypsin (2.5 nM), Novo Nordisk A/S
[6] = target: plasma kallikrein (3 nM), Kabi
[7] = target: Trypsin (8 nM), Novo Nordisk A/S, Bagsvaerd, Denmark
[8] = target: recombinant human Factor VIIa (300 nM), Novo Nordisk A/S (human) (UniProt P08709)
[9] = target: human Factor XIIa (30 nM) (human) (UniProt P00748)
[10] = target: glandular kallikrein (1 U/ml), Sigma, St Louis, MO
[11] = target: human Factor XIa (1 nM) (human) (UniProt P03951)

% Inhibition [1]: 1%
% Inhibition [2]: 4%
% Inhibition [3]: 1%
% Inhibition [4]: 1%
% Inhibition [5]: 91.3%
% Inhibition (Plasmin (10 nM), Kabi): 100%
% Inhibition [6]: 83%
% Inhibition [7]: 100%
% Inhibition [8]: 1%
% Inhibition [9]: 2%
% Inhibition [10]: 91.4%
% Inhibition [11]: 59%
Substance: bovine aprotinin (amino acids 1-58) (from UniProt P00974)
